Columns and labels:
B*4402 = B*4402 (Homo sapiens, UniProt P01889, A223V/A65T/A93T/A95T/D201E/D98Y/E176V/E187L/E204Q/E69K/G107R/H137Y/K202T/L105A/L119I/N104T/N87E/Q56L/Q94N/R106L/R155S/R180D/S101N/S121R/S35A/S48T/T118I/V36M/W191S/Y140D/Y91S); assay: B44 supertype peptide binding, B*4402; conditions: CEA-derived B44 peptides; binding affinity, unit inferred; read-out: B* 4402
[1] = test system: B44 supertype (B*1801, B*4001, B*4002, B*4402, B*4403, B*4501); assay: B44 supertype cross-binding (degeneracy, alleles bound); parameters: species or system human; conditions: number of the six B44 supertype alleles bound
B*4501 = B*4501 (Homo sapiens, UniProt P01889, A329T/A65T/A93T/A95T/C349S/D138N/D201E/D98Y/E176V/E187L/E204Q/E69K/H137Y/K202T/L119W/N87E/Q56L/Q94N/R155S/R180D/S121R/S35A/S48T/V127L/V306I/V36M/W191S/Y140L/Y33H/Y91S); assay: B44 supertype peptide binding, B*4501; conditions: CEA-derived B44 peptides; binding affinity, unit inferred; read-out: B* 4501
B*4001(B60) = B*4001(B60) (Homo sapiens, UniProt P01889, A65T/A93T/A95T/D138N/D98Y/E176V/E69K/N87E/Q56L/Q94N/R180L/S121R/S35A/S48T/T167S/V36M/W171L/Y33H/Y91S); assay: B44 supertype peptide binding, B*4001; conditions: CEA-derived B44 peptides; binding affinity, unit inferred; read-out: B* 4001

By UniProt entry, the sequences of proteins in these tests, tags left out. Where a name states a change or a piece, a line headed by the entry shows the natural chain unless it says otherwise.
UniProt P01889: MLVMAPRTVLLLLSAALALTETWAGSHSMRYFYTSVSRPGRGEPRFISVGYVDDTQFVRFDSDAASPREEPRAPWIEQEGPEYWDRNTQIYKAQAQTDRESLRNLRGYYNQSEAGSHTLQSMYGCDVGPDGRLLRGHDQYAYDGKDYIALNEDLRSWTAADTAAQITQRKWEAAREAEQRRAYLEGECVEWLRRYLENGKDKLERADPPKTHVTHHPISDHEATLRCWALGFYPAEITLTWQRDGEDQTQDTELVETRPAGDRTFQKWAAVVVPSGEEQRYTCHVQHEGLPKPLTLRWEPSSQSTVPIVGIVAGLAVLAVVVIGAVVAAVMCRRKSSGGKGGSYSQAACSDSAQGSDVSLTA

Structure (SMILES)	IC50 (B*4402) [µM]	Degeneracy [1]	IC50 (B*4501) [µM]	IC50 (B*4001(B60)) [µM]
CC[C@H](C)[C@H](NC(=O)[C@H](CC(N)=O)NC(=O)[C@H](CO)NC(=O)[C@@H](NC(=O)[C@H](Cc1ccccc1)NC(=O)[C@H](CC(C)C)NC(=O)[C@H](CCC(=O)O)NC(=O)[C@@H](N)CCC(N)=O)[C@@H](C)CC)C(=O)O	2.28	1	–	–
CC[C@H](C)[C@H](NC(=O)CNC(=O)[C@H](CS)NC(=O)[C@H](CCC(=O)O)NC(=O)[C@@H](N)Cc1ccc(O)cc1)C(=O)N[C@@H](CCC(N)=O)C(=O)N[C@@H](CC(N)=O)C(=O)N[C@@H](CCC(=O)O)C(=O)N[C@@H](CC(C)C)C(=O)O [compound 371]	0.452	5	0.855	–
CSCC[C@H](N)C(=O)N[C@@H](CCC(=O)O)C(=O)N[C@@H](CO)C(=O)N1CCC[C@H]1C(=O)N[C@@H](CO)C(=O)N[C@@H](C)C(=O)N1CCC[C@H]1C(=O)N1CCC[C@H]1C(=O)N[C@@H](Cc1c[nH]cn1)C(=O)N[C@@H](CCCNC(=N)N)C(=O)N[C@@H](Cc1c[nH]c2ccccc12)C(=O)O [compound 373]	–	4	0.359	0.943
CC(C)C[C@H](NC(=O)[C@H](CC(C)C)NC(=O)[C@@H](NC(=O)[C@H](CCC(=O)O)NC(=O)[C@H](CCCCN)NC(=O)CNC(=O)[C@H](CCC(=O)O)NC(=O)[C@H](C)N)C(C)C)C(=O)N[C@@H](CC(C)C)C(=O)N[C@H](C(=O)O)C(C)C [compound 375]	–	4	0.994	–
CC(C)[C@H](NC(=O)[C@@H]1CCCN1C(=O)[C@H](CC(N)=O)NC(=O)[C@H](CCC(N)=O)NC(=O)[C@@H](NC(=O)[C@H](CCC(=O)O)NC(=O)[C@@H](N)CS)[C@@H](C)O)C(=O)N[C@@H](CO)C(=O)N[C@@H](C)C(=O)O [compound 379]	–	4	–	7.02
CC(C)[C@H](NC(=O)[C@H](CCCNC(=N)N)NC(=O)[C@H](Cc1ccccc1)NC(=O)[C@H](CCC(N)=O)NC(=O)CNC(=O)[C@@H](NC(=O)[C@H](C)NC(=O)[C@H](CCC(=O)O)NC(=O)[C@H](CCC(=O)O)NC(=O)[C@@H](N)CC(N)=O)[C@@H](C)O)C(=O)N[C@@H](Cc1ccc(O)cc1)C(=O)O [compound 383]	–	3	3.99	3.25
CC[C@H](C)[C@H](NC(=O)[C@H](CCC(=O)O)NC(=O)[C@@H]1CCCN1)C(=O)N[C@@H](CCC(N)=O)C(=O)N[C@@H](CC(N)=O)C(=O)N[C@H](C(=O)N[C@H](C(=O)N[C@@H](Cc1ccc(O)cc1)C(=O)N[C@@H](CC(C)C)C(=O)N[C@@H](Cc1c[nH]c2ccccc12)C(=O)N[C@@H](Cc1c[nH]c2ccccc12)C(=O)O)[C@@H](C)O)[C@@H](C)O [compound 389]	–	3	1.36	0.749
CC[C@H](C)[C@H](NC(=O)[C@H](Cc1ccccc1)NC(=O)[C@H](CC(C)C)NC(=O)[C@H](CCC(=O)O)NC(=O)[C@@H](N)CCC(N)=O)C(=O)N[C@@H](CO)C(=O)N[C@@H](CC(N)=O)C(=O)N[C@H](C(=O)N[C@H](C(=O)O)[C@@H](C)O)[C@@H](C)CC [compound 392]	2.33	3	–	6.57
CC[C@H](C)[C@H](NC(=O)[C@H](CCC(N)=O)NC(=O)[C@H](CCCNC(=N)N)NC(=O)[C@H](CC(N)=O)NC(=O)CNC(=O)[C@H](CC(=O)O)NC(=O)[C@@H](NC(=O)[C@H](CCCNC(=N)N)NC(=O)[C@H](CCC(=O)O)NC(=O)CN)C(C)C)C(=O)O [compound 394]	–	2	19.5	–
CC(C)[C@H](NC(=O)[C@H](CCCNC(=N)N)NC(=O)[C@H](Cc1ccccc1)NC(=O)[C@H](CCC(N)=O)NC(=O)CNC(=O)[C@@H](NC(=O)[C@H](C)NC(=O)[C@H](CCC(=O)O)NC(=O)[C@@H](N)CCC(=O)O)[C@@H](C)O)C(=O)N[C@@H](Cc1ccc(O)cc1)C(=O)O [compound 397]	–	2	–	> 10
